Laboratory results: patent publication US8629135B2, “Pharmaceutical compositions comprising RET inhibitors and methods for the treatment of cancer” (Queen's University at Kingston, priority 2008, dated 2014)

Key:
BxPc3 tumours = settings: BxPc3 xenograft study
MiaPaca-2 tumours = assay: Xenograft study, subcutaneous MiaPaca-2 tumours; settings: MiaPaca-2 xenograft study

SMILES: CN(C)CCC=C1c2ccccc2C=Cc2ccccc21.Cl [SW-01, Cyclobenzaprine Hydrochloride]
- animal weight (BxPc3 tumours): animal weight between the groups was maintained
- animal weight (MiaPaca-2 tumours): animal weight between the groups was maintained
